From patent publication US20260124309A1, “STAT6 DEGRADERS AND USES THEREOF” (Kymera Therapeutics, Inc., priority 2023, published 2026)
Read-outs that look alike come from different tables or passages of the source.

Amino acid sequences for entries named in this document (tags omitted). Residues count along the entry.
UniProt P42226, whole entry: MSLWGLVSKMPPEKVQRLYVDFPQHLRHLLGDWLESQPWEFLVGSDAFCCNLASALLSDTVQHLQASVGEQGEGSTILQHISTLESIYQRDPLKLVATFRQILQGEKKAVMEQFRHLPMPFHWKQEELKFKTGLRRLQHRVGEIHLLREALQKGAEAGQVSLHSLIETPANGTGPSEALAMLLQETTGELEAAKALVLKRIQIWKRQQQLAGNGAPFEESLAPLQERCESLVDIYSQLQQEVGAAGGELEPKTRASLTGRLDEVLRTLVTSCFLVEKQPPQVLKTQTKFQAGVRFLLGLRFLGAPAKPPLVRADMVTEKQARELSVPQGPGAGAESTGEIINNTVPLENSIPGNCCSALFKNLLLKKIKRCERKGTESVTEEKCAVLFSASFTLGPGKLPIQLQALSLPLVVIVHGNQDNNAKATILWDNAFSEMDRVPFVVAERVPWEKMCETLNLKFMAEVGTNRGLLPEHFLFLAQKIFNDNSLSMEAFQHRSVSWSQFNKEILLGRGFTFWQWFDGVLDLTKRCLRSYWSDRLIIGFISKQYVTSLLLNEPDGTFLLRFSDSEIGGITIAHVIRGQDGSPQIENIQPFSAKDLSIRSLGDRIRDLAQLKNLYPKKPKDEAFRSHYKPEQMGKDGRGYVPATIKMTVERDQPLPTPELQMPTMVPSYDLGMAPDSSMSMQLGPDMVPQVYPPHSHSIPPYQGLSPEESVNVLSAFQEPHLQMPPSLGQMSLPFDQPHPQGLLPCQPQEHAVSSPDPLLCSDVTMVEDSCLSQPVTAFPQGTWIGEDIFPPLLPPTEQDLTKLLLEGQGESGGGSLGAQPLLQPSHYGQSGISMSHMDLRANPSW
UniProt P42226, 123-632 limits assumed: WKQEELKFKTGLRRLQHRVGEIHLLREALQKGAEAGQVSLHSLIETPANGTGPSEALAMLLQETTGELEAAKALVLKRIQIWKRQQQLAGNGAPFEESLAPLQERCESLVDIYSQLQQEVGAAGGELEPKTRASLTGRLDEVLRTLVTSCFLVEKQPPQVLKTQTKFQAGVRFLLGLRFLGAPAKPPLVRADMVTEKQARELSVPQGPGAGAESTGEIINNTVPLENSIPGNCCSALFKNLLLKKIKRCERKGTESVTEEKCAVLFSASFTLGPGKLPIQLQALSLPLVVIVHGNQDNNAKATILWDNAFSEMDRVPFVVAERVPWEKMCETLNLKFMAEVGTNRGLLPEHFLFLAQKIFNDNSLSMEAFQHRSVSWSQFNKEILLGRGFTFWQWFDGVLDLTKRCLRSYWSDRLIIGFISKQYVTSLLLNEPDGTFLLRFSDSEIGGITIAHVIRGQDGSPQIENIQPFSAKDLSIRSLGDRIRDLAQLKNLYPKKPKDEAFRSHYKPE

Assays:
STAT6 = STAT6 (Homo sapiens, UniProt P42226); experiment: STAT6 MSD degradation in A549 cells; details: for DC50: read-out: STAT6 MSD degradation DC50 (nM) 24 h
In short: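 A549 cells treated with a 9-point 1:3 series (top up to 10 uM) for 4 to 24 hours at 37° C., then lysed in RIPA. STAT6 quantified by sandwich MSD electrochemiluminescence immunoassay. DC50 and Dmax from four-parameter nonlinear fit, reported as letter-code bins.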

[1] = molecular target: biotinylated truncated STAT6 (123-632)-avi (Homo sapiens, UniProt P42226); experiment: STAT6 HTRF binding assay; details: read-out: STAT6 HTRF: Average IC50, 0.15 nM biotinylated truncated STAT6 (123-632)-avi, 20 nM fluorescein-labeled probe

SMILES	STAT6 MSD degradation Dmax % 24 h (STAT6)	DC50 (STAT6)	IC50 ([1]; 30 minutes at room temperature)	IC50 ([1]; HTRF binding)
COc1cc(N2CCN(CCc3ccc(C4CCC(=O)NC4=O)cc3F)CC2)ccc1-c1cc(C2=CCCN(C(=O)CCn3ccnn3)C2)c(F)c2[nH]c(C(=O)N(C)C)cc12 (stereo not drawn)	A (A (>90%))	< 1 nM	< 100 nM	
COc1cc(N2CCN(c3ccc(-c4cc(C5=CCCN(C(=O)CCn6cccn6)C5)c(F)c5[nH]c(C(=O)N(C)C)cc45)cc3)CC2)c(F)cc1NC1CCC(=O)NC1=O (stereo not drawn)	A (A (>90%))	< 1 nM		< 100 nM
CN(C)C(=O)c1cc2c(-c3ccc(N4CCN(CCCc5ccc6c(c5)n(C)c(=O)n6C5CCC(=O)NC5=O)CC4)cc3)cc(C3=CCCN(C(=O)CCn4ccnn4)C3)cc2[nH]1 (stereo not drawn)	A (A (>90%))	< 1 nM	< 100 nM	
